Test results taken from publication PMC11862611 (RSC Medicinal Chemistry, 2025).
pIC50: −log10 of the molar value.

By UniProt entry, the sequences of proteins in these tests, tags left out.
UniProt E9AFX2, whole entry: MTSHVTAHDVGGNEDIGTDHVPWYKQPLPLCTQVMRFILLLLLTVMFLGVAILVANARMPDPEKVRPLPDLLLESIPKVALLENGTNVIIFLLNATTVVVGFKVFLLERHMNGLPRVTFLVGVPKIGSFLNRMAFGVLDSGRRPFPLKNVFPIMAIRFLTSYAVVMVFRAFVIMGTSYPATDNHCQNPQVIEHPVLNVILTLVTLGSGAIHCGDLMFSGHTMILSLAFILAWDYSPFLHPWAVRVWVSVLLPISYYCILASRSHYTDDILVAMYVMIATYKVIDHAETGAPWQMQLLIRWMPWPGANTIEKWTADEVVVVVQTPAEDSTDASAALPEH

Biological target: L. majIPCS (Leishmania major, UniProt E9AFX2)
Assay: inhibition of microsomal enzyme preparation of L. majIPCS
Assay type: biochemical
Details: for pIC50: read-out: LmjIPCS IC50
Text: When tested against microsomal enzyme preparations of L. majIPCS[16] (Fig. 2, Table S1 ^†) the comparisons of pyrrolidine, tetrahydrofuran and cyclopentane derivatives 19, 21–23 supported earlier observations that all active compounds retained a basic nitrogen in the head group.[17] In general, whilst enzyme inhibitory activity was retained in a number of these analogues, much lower activity was observed against promastigote parasites. […] Speculating that this lower activity in promastigote parasite assays reflected a (membrane) transport issue, we then explored the corresponding ether derivative 27. Attempts to prepare this by acid catalysed ether formation failed and ultimately this was achieved through displacement of the corresponding benzylic chloride 25 (Scheme 3).
Fig. 2 Activity of a selection of simple amide and triazole linked CF analogues against a microsomal preparation of L. majIPCS and L. major promastigote parasites, respectively.

| SMILES | LmjIPCS inhibition % at 20 µM ± SD [%] | pIC50 |
| --- | --- | --- |
| O=C(C(c1ccccc1)c1ccc(Cl)cc1)N1CC2(CNC2)C1 (centres unmarked) | 77.9 ± 5.1 | 4.94 |
| O=C(NCC1CNC1)C(c1ccccc1)c1ccc(Cl)cc1 (centres unmarked) | 86.0 ± 2.7 | 4.88 |
| CN1CCN(c2ncc(NC(=O)C(c3ccccc3)c3ccc(Cl)cc3)cn2)CC1 (centres unmarked) | 89.6 ± 2.2 | 5.21 |
| O=C(NCC1CCCN1)C(c1ccccc1)C1CCCC1 (centres unmarked) | 46.4 ± 5.8 | 4.55 |
| O=C(NCCCN1CCCC1)C(c1ccccc1)c1ccc(Cl)cc1 (centres unmarked) | 76.1 ± 8.5 | 4.69 |
| O=C(C[C@@H]1CCCN1)NC(Cc1ccccc1)c1ccccc1 (some centres unmarked) | 44.4 ± 4.9 | 4.60 |
| O=C(Nc1ccc2c(c1)CN(CCF)C2)C(c1ccccc1)c1ccc(Cl)cc1 (centres unmarked) | 59.8 ± 29.9 | 4.77 |
| O=C(Cc1ccc(C(F)(F)F)cc1C(F)(F)F)NCC1CCCN1 (centres unmarked) | 57.2 ± 10.9 | 4.78 |
| O=C(NCc1nc2ccccc2s1)C(c1ccccc1)c1ccc(Cl)cc1 (centres unmarked) | 79.4 ± 9.0 | 4.44 |
| O=C(NC1CC2CCC(C1)N2)C(c1ccccc1)c1ccc(Cl)cc1 (centres unmarked) | 89.2 ± 2.6 | 5.27 |
| CCCCCC(NC(=O)C[C@@H]1CCCN1)c1ccccc1 (some centres unmarked) | 81.9 ± 2.8 | 4.90 |
| CN(C)CCn1cc2ccc(NC(=O)C(c3ccccc3)c3ccc(Cl)cc3)cc2n1 (centres unmarked) | 90.2 ± 1.7 | 5.36 |
| O=C(NCc1ncc[nH]1)C(c1ccccc1)c1ccc(Cl)cc1 (centres unmarked) | 53.4 ± 8.5 | 4.62 |
